Reference: PMC10001230, “A Role for the V0 Sector of the V-ATPase in Neuroexocytosis: Exogenous V0d Blocks Complexin and SNARE Interactions with V0c” (Cells, 2023)

Target: T1, His6-T7-HSV tagged full-length V0c-subunit (rat, UniProt P63081)
T1 construct: V-ATPase V0 sector subunit c (V0c), full length; also called HSV-V0c; 6His-V0c; source: E. coli OverExpress C43(DE3), membranes solubilized in 2% FosCholine-12, purified (Ni-NTA)
Assay: ELISA; competition: His-VAMP2 immobilized; V0c 20 nM alone or with t-SNARE dimer (1 µM), complexin (0.2 µM) or both; with 1 µM GST or GST-V0d1; detected with anti-HSV
Details: both partners purified

binding result: binds
B1: His6-tagged Vamp ([…]) (domain or fragment)
chain: not shown
notes: VAMP2/synaptobrevin 2 without the transmembrane domain, […]; also called VAMP2; His-VAMP2; source: E. coli BL21, purified; also co-expressed in BL21 with SNAP25 and syntaxin 1 (1-265)
